Compound activity: PubChem BioAssay, National Center for Advancing Translational Sciences (NCATS)
A549 tox-1 = kills or reduces viability of A549 cells in Nrf2 counter-screen; A549 ARE-Fluc cells, CellTiter-Fluor viability, 18-24 h; Potency, µM (highest dose often 46 µM), most hits filed as inhibitors; 390,000 tested, 0.16% active
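A549 ARE_Fluc cells in 5% FBS OPTI-MEM were exposed to compounds in concentration-response for 18-24 h at 37 deg C. Viability was read by CellTiter-Fluor fluorescence (Ex 405/Em 525) after 30 min, before the luciferase read.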
B2AR arrestin = recruits beta-arrestin to the human beta2-adrenergic receptor; beta-arrestin recruitment to beta2AR, cell-based reporter; Potency, µM (highest dose often 46.1 µM), usual class: activators; 330,000 tested, 0.02% active; note: nearly all actives have a fitted effect of over 65% in size
miR-21 FLuc = miR-21 reporter, rising signal; HeLa miR-21 FLuc reporter, luciferase, 48 h; Potency, µM (titrated, usually from 38.3 µM); AID 2288; 340,000 tested, under 10 active; active = well fitted rising curve with a large enough effect; inconclusive = small, poorly fitted or top-dose-only effect; inactive = no such curve, though single readings can be large or run the other way;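 further: miR-21 action dims this reporter so a rising signal means less miR-21 action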
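Compounds were titrated across several concentrations (up to approximately 40 uM) and incubated 48 hours with HeLa miR-21-FLuc reporter cells (miR-21 target sequence downstream of FLuc, endogenous miR-21). Readout was firefly luciferase luminescence after lytic detection reagent.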
Nrf2 block = Nrf2 pathway inhibition; A549 ARE-Fluc reporter, luciferase luminescence, 18-24 h; Potency, µM (top dose mostly 46 µM), usual class: inhibitors; 360,000 tested, 2.1% active; AID 504444; note: nearly all actives have a fitted effect of over 60% in size
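Two sequential reads on A549 ARE_Fluc cells exposed to compound for 18-24 h: a CellTiter-Fluor fluorescence read for viability, then a luciferase luminescence read for Nrf2/ARE activity.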
Nrf2 activator = activators of Nrf2 (ARE) signaling; AREc32 ARE-luciferase reporter (MCF7-derived line), luminescence, 24 h; Potency, µM (highest dose often 46.1 µM), hits mostly activators; 410,000 tested, 0.31% active; AID 624171; note: nearly all actives have a fitted effect of over 65% in size
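For detection, Steady-Glo was added and plates sat 30 min at RT; before that, AREc32_Fluc cells grown overnight in OPTI-MEM/5% FBS had been treated with 23 nL compound for 24 hr at 37 deg C.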
FLuc counter 3 = counter-screen for Nrf2 inhibitors: firefly luciferase enzyme inhibition; shares compounds with Nrf2 block; purified firefly luciferase, luminescence inhibition; Potency, µM (doses to about 57.5 µM), most hits filed as inhibitors; 1,400 tested, 4% active; AID 720522; note: nearly all actives have a fitted effect of over 65% in size
A549 tox-2 = toxic to A549 ARE-Fluc cells in Nrf2 counterscreen; shares compounds with Nrf2 block; A549 ARE-Fluc cells, cytotoxicity counterscreen; Potency, µM (doses to about 46.1 µM), usual class: inhibitors; 1,400 tested, 2% active;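 note: cells exposed to compounds for 18 to 24 hours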
ARE-Fluc inh = reduces Nrf2 ARE reporter signal in A549 cells; shares compounds with Nrf2 block; A549 ARE-firefly luciferase reporter, luminescence; Potency, µM (highest dose often 46.1 µM), most hits filed as inhibitors; 1,400 tested, 74% active; note: nearly all actives have a fitted effect of over 65% in size
Of the large screens only hits and unclear results are named; the others gave an inactive call (follow-up assays come after a bar, where shown); ! = repeats disagree. Sampled rows, rich in hits. Any-hit rate of the full collection: about 2.2%. Unless noted, calls come from the whole dose curve; as a rule, active = well fitted curve in the direction sought with a large enough effect; inconclusive = small, poorly fitted or top-dose-only effect, or another doubt; inactive = no such curve, though single readings can be large; an effect the other way counts as inactive or inconclusive.

O=C(NC(=S)NNC(=O)c1cnccn1)c1ccc(Cl)cc1	Nrf2 block 5.8µM | FLuc counter 3 inactive | A549 tox-2 inactive | ARE-Fluc inh 5.8µM
O=C(Nc1ccc(C(=O)OCc2cc(=O)n3nc(C4CC4)sc3n2)cc1)c1cccc(F)c1	none (no result: B2AR arrestin, Nrf2 block)
COc1ccc(NC(=O)Cn2c(=O)n(Cc3ccc4c(c3)OCO4)c(=O)c3ccc(C(=O)NC4CCCCC4)cc32)cc1	none (no result: B2AR arrestin)
C=CC[n+]1c(-c2ccc(C)cc2)csc1Nc1ccc(NC(C)=O)cc1	miR-21 FLuc inconclusive, Nrf2 block 6.5µM | FLuc counter 3 inactive | A549 tox-2 inactive | ARE-Fluc inh 6.5µM
C[C@H]1O[C@@H](O[C@H]2[C@@H](O)C[C@H](O[C@H]3[C@@H](O)C[C@H](O[C@H]4CC[C@@]5(C)[C@H](CC[C@@H]6[C@@H]5C[C@@H](O)[C@]5(C)[C@@H](C7=CC(=O)OC7)CC[C@]65O)C4)O[C@@H]3C)O[C@@H]2C)C[C@H](O)[C@@H]1O	A549 tox-1 inconclusive, miR-21 FLuc inconclusive, Nrf2 block 0.13µM | FLuc counter 3 inactive | A549 tox-2 inconclusive | ARE-Fluc inh 0.058µM
O=C(c1ccc2c(=O)n(CCc3ccccc3)c(=O)[nH]c2c1)N1CCN(c2ccc(Cl)cc2)CC1	miR-21 FLuc inconclusive, Nrf2 block inconclusive (no result: B2AR arrestin)
COCCn1c(=O)[nH]c2cc(C(=O)N3CCN(c4ccc(Cl)cc4)CC3)ccc2c1=O	miR-21 FLuc inconclusive, Nrf2 block 5.8µM! | FLuc counter 3 inactive | A549 tox-2 inactive | ARE-Fluc inh inconclusive
Cc1cc(N(C)C)cc(C)c1/C=C/c1ccnc2ccccc12	none (no result: A549 tox-1, B2AR arrestin, miR-21 FLuc, Nrf2 block, Nrf2 activator) | FLuc counter 3 inconclusive | A549 tox-2 inconclusive | ARE-Fluc inh 9.2µM
COc1cc(OC)c(OC)cc1/C=C/c1ccnc2ccccc12	none (no result: B2AR arrestin, miR-21 FLuc)
C=Cc1ccc(CSc2nc(-c3ccccc3C)nc3c2Cc2c(CO)cnc(C)c2O3)cc1	none (no result: B2AR arrestin)
CC(=O)Nc1cccc(-c2cnc(N)c(C(=O)c3cccnc3)n2)c1	A549 tox-1 inconclusive, Nrf2 block 5.2µM (not shown: miR-21 FLuc) | FLuc counter 3 inactive | A549 tox-2 inactive
NC(=O)c1cccc(-c2cnc(N)c(C(=O)c3cccnc3)n2)c1	A549 tox-1 inconclusive, Nrf2 block inconclusive (no result: B2AR arrestin, miR-21 FLuc)
Cc1cccc(Cn2c(=O)n(CCc3ccccc3)c(=O)c3c(C)c(C)sc32)c1	none (no result: B2AR arrestin)
Cc1ccc(S(=O)(=O)N2CCC(C(=O)Nc3ccc(C)c(Cl)c3)CC2)cc1	Nrf2 block inconclusive (no result: B2AR arrestin) | FLuc counter 3 inactive | A549 tox-2 inactive | ARE-Fluc inh 7.3µM
Cc1cc(C)cc(NC(=O)C2CCN(S(=O)(=O)c3ccc4c(c3)NC(=O)C(C)S4)CC2)c1 (centres undefined)	none
Cc1ccc(NC(=O)C2CCN(S(=O)(=O)c3ccc4c(c3)NC(=O)C(C)S4)CC2)cc1Cl (centres undefined)	A549 tox-1 inconclusive, miR-21 FLuc inconclusive, Nrf2 block 1.3µM | FLuc counter 3 inactive | A549 tox-2 inactive | ARE-Fluc inh 9.2µM
CC1Sc2ccc(S(=O)(=O)N3CCN(c4cccc(Cl)c4)CC3)cc2NC1=O (centres undefined)	none
Cc1ccc(S(=O)(=O)N2CCC(C(=O)Nc3ccc(S(=O)(=O)N4CCOCC4)cc3)CC2)cc1	Nrf2 block inconclusive (no result: B2AR arrestin, miR-21 FLuc)
CC1Sc2ccc(S(=O)(=O)N3CCN(c4ccccc4)CC3)cc2NC1=O (centres undefined)	Nrf2 block 7.3µM | FLuc counter 3 inactive | A549 tox-2 inactive | ARE-Fluc inh inconclusive
Cc1ccc(C)c(N2CCN(C(=O)CCS(=O)(=O)c3ccc4c(c3)NC(=O)C(C)S4)CC2)c1 (centres undefined)	Nrf2 block 6.5µM | FLuc counter 3 inactive | A549 tox-2 inactive | ARE-Fluc inh 6.5µM
CCCn1cc(S(=O)(=O)c2cccc(Cl)c2)c(=O)c2cc(F)c(N3CCCC3)cc21	Nrf2 block inconclusive (no result: B2AR arrestin)
O=C(Cn1cc(C(=O)c2ccccc2)c(=O)c2cc3c(cc21)OCCO3)Nc1ccc(F)c(F)c1	none (no result: B2AR arrestin)
O=[N+]([O-])c1ccc(N/N=C/c2sc(N3CCOCC3)nc2-c2ccccc2)c(S(=O)(=O)Nc2ccc(Cl)cc2)c1	A549 tox-1 2.6µM, Nrf2 block 1.5µM | FLuc counter 3 inactive | A549 tox-2 inconclusive | ARE-Fluc inh 3.3µM
Fc1ccc(Nc2nc3nonc3nc2Nc2cccc(C(F)(F)F)c2)cc1	A549 tox-1 8.2µM, miR-21 FLuc inconclusive, Nrf2 block 1.5µM (no result: B2AR arrestin) | FLuc counter 3 inactive | A549 tox-2 5.8µM | ARE-Fluc inh 1µM
O=C(c1cnc(N2CCN(c3ncccn3)CC2)c2ccccc12)N1CCN(c2ccccn2)CC1	miR-21 FLuc inconclusive, Nrf2 block inconclusive
O=C(Nc1c(F)cccc1F)c1cnc(N2CCN(c3ccccn3)CC2)c2ccccc12	A549 tox-1 inconclusive, miR-21 FLuc inconclusive, Nrf2 block 9.2µM | FLuc counter 3 inactive | A549 tox-2 inactive | ARE-Fluc inh inconclusive
CCc1nc(N)nc(N)c1-c1ccc(N(C)Cc2ccccc2)c([N+](=O)[O-])c1	Nrf2 block 1.3µM (no result: B2AR arrestin, miR-21 FLuc) | FLuc counter 3 inactive | A549 tox-2 inactive | ARE-Fluc inh 1.2µM
CCCCC(CC)CNC(=O)CCCCCn1c(=O)[nH]c2ccsc2c1=O (centres undefined)	none (no result: B2AR arrestin)
Cc1cc(C)nc(Nc2n[nH]c(C)n2)n1	Nrf2 block 5.8µM | FLuc counter 3 inactive | A549 tox-2 inactive | ARE-Fluc inh inactive
Cc1cc(C)nc(Nc2n[nH]c(-c3ccc(N)cc3)n2)n1	Nrf2 block inconclusive
CCN1/C(=C/c2sc(-c3ccccc3C)c[n+]2C)Sc2ccccc21	A549 tox-1 inconclusive, miR-21 FLuc inconclusive, Nrf2 block 0.37µM | FLuc counter 3 inactive | A549 tox-2 inconclusive | ARE-Fluc inh 1.8µM
CCC(=O)/C=C1/Sc2ccccc2N1CC	none (no result: Nrf2 block)
Cc1ccc(C(=O)Nc2ccc3c(c2)N(C)C(=O)c2ccccc2S3)cc1	A549 tox-1 inconclusive, miR-21 FLuc inconclusive (no result: B2AR arrestin, Nrf2 block)
O=S(=O)(c1cccs1)N1CCN(c2ccc(O)cc2)CC1	Nrf2 block inconclusive | FLuc counter 3 inactive | A549 tox-2 inconclusive | ARE-Fluc inh 1.8µM
O=C(NCc1ccccc1)c1ccc(CSc2nc3cccnc3n2Cc2cccc(F)c2)cc1	Nrf2 block inconclusive (no result: B2AR arrestin)
CCOC(=O)c1sc2ccccc2c1S(=O)(=O)Nc1ccc(OC)c(Cl)c1	none (no result: B2AR arrestin)
CCOc1ccc(Oc2ccccc2NC(=O)CSCC(=O)Nc2cc(C)on2)cc1	Nrf2 block 9.2µM (no result: miR-21 FLuc) | FLuc counter 3 inactive | A549 tox-2 inactive | ARE-Fluc inh 7.3µM
